The data set has as its target T1, metallo-beta-lactamase (beta-lactamase II) 5/B/6 (Bacillus cereus, UniProt P14488 P14488:30-256).
T1 sequence: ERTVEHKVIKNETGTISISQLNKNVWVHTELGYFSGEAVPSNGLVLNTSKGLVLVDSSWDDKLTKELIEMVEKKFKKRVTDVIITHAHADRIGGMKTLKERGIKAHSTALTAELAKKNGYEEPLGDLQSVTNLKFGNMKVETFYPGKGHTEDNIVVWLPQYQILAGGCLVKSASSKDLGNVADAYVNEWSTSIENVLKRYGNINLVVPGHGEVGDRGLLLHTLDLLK
The experiment in a line: inhibition. The conditions noted are these: tags: strain 5/B/6; zinc class B enzyme.

Regarding AACCAAACTTGGATCGGTGCACATGTCGAA (ssDNA) [30-mer aptamer], the midpoint of inhibition, the IC50, lay at 1.2 nM.
On to CCAAACTTGG (ssDNA) [10-mer], for which 1.2 nM corresponded to half-maximal inhibition (IC50).

The values above are taken from patent US20050202434 (published 2005).
